Experimental data: publication PMC2770177

Target: F-actin (rat hindleg muscle) (rat) (UniProt P68136)
Experiment: co-sedimentation

Km for Tm binding to actin	stoichiometry N (Tm/actin (mol/mol))	Substance
0.927 µM	0.15	dephosphorylated α-tropomyosin (rat skeletal muscle) (from UniProt P04692 1-284) (natural protein)
0.951 µM	–	natively phosphorylated α-tropomyosin (rat skeletal muscle) (from UniProt P04692 1-284) (natural protein)
